Experimental data from patent publication US7338807 (US Dept. of Health and Human Services, dated 2008).

Legend:
Assay in all cases: GST pull-down on GSH-beads, 35S-labelled in vitro-translated protein
[1] = molecular target: T1, XPB protein, full length, in vitro-translated, 35S-labelled (human, UniProt P19447 1-782, [35S]Cysteine label)
T1 construct: Full length XPB translated in vitro from plasmid pZAP10; also called wild-type XPB
T1 sequence: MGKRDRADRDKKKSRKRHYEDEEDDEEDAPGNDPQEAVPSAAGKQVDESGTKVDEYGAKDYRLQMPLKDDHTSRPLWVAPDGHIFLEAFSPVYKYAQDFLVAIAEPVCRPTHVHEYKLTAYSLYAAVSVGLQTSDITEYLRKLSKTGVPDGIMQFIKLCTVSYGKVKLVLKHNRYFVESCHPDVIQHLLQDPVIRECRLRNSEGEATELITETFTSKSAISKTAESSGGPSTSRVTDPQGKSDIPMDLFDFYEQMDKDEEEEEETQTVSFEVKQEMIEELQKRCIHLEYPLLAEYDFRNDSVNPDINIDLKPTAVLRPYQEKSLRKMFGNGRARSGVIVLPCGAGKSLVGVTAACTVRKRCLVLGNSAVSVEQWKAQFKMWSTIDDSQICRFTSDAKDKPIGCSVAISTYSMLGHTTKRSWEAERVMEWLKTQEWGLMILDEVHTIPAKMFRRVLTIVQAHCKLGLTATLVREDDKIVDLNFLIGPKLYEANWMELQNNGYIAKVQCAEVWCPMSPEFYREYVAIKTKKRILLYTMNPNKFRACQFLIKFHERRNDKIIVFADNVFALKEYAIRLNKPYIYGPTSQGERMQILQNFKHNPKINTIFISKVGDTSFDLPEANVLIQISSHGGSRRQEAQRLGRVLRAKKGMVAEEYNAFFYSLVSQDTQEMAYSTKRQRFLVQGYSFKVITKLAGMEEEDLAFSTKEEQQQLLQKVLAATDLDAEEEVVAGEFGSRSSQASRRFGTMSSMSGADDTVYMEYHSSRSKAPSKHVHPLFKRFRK

[2] = molecular target: T2, XPD protein, in vitro-translated, 35S-labelled (human, UniProt P18074 1-760, [35S]Cysteine label)
T2 sequence (looked up): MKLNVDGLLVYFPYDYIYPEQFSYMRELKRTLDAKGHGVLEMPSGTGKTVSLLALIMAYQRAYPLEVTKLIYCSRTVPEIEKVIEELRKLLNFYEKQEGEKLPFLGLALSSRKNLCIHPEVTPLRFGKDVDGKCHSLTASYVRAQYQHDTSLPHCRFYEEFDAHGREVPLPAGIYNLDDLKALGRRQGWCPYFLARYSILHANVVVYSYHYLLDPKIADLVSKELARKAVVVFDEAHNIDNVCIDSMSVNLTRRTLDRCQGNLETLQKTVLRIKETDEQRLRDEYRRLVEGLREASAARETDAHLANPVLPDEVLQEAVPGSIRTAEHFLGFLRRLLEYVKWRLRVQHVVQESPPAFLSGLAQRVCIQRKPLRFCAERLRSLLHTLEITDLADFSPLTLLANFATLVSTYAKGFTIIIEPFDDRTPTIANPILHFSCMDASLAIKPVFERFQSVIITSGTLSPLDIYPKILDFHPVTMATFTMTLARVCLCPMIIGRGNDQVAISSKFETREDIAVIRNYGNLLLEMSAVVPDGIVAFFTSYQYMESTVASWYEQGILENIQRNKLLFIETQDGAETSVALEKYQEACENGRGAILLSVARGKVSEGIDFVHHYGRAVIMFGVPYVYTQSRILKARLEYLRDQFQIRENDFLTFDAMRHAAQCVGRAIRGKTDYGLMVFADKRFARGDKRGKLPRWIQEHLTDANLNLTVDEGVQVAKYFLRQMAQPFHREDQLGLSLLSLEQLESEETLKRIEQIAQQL

[3] = molecular target: T3, Rad3 protein, in vitro-translated, 35S-labelled (yeast, UniProt P06839 1-778, [35S]Cysteine label)
T3 construct: also called yeast Rad3
T3 sequence (looked up): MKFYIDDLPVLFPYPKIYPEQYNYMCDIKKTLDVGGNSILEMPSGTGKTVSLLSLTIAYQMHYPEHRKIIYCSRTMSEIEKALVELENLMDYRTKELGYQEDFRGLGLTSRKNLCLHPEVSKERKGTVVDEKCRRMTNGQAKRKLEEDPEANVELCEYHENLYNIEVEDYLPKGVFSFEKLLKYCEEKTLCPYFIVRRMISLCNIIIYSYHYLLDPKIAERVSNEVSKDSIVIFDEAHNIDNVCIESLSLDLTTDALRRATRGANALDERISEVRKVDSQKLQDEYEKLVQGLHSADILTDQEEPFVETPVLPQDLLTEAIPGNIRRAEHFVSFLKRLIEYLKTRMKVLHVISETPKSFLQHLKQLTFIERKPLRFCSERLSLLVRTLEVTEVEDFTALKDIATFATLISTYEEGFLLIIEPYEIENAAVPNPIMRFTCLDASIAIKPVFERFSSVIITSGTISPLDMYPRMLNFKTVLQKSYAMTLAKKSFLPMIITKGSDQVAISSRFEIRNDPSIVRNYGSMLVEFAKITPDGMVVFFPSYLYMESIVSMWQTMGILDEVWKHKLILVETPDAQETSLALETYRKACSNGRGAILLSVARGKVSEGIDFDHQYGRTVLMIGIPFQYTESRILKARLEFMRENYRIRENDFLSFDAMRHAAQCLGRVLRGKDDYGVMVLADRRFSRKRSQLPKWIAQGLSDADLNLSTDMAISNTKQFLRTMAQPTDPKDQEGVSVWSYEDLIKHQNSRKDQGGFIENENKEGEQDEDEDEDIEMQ

[4] = molecular target: T4, CSB protein, in vitro-translated, 35S-labelled (human, [35S]Cysteine label)
T4 construct: also called CSR

Measured: binding result

B1: GST (glutathione S-transferase alone) (other, UniProt P08515 1-218, looked up)
chain: MSPILGYWKIKGLVQPTRLLLEYLEEKYEEHLYERDEGDKWRNKKFELGLEFPNLPYYIDGDVKLTQSMAIIRYIADKHNMLGGCPKERAEISMLEGAVLDIRYGVSRIAYSKDFETLKVDFLSKLPEMLKMFEDRLCHKTYLNGDHVTHPDFMLYDALDVVLYMDPMCLDAFPKLVCFKKRIEAIPQIDKYLKSSKYIAWPLQGWQATFGGGDHPPK
notes: Control loaded on GSH-beads; also called GST alone
no binding (tested: 4 µg of GST): all assays above
